The values that follow come from patent publication US8663653B2, “Efficient cell culture system for hepatitis C virus genotype 2B” (priority 2008, dated 2014).

For the experiment, the system named is JFH1-based recombinants of genotypes 1a, 1b, 2a, 2b, and 6a. The experiment is classed as cell-based, hepatitis C virus.

Consider interferon-α2b, for which the “decrease in supernatant HCV RNA titers” value is listed as around 2 log.
